OPERA 2.9 data: logP (octanol/water) values

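OPERA's authors assembled the values from existing databases and did not measure them anew. One number stands for a compound and property, with no spread given. How each value was measured is not recorded, so precision varies. Where a salt, mixture or single isomer is drawn, the source does not say that exactly this form was tested. Some upstream entries may be estimates or bounds without being marked so.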

logP is the log10 of the octanol-water partition coefficient; higher is more lipophilic.

logP,compound
2.39,CCN[P+]([O-])(OCC)O/N=C(/C#N)c1ccc(OC)cc1 (stereo partly drawn)
3.59,C#CC(C)OC(=O)Nc1cccc(Cl)c1 (stereo not given)
-0.13,CC(C)C(N)C(=O)OCc1ccccc1.Cc1ccc(S(=O)(=O)O)cc1 (stereo not given)
-1.4,CC(C)c1ccc(S(=O)(=O)[O-])cc1.[K+]
-2.215,O=C(Nc1ccc2c(O)c(/N=N/c3ccccc3)c(S(=O)(=O)[O-])cc2c1)Nc1ccc2c(O)c(/N=N/c3ccccc3)c(S(=O)(=O)[O-])cc2c1.[Na+].[Na+]
-1.79,C[C@](N)(Cc1ccc(O)c(O)c1)C(=O)O
1.01,CNc1ccc(C(=O)O)cc1
6.56,CCc1cc2c3ccccc3ccc2c2ccccc12
2.8,CCCCCCC=O
2.5,O=C([O-])c1cc2ccccc2c(/N=N/c2ccc3ccccc3c2S(=O)(=O)[O-])c1[O-].[H+].[Mn+2]
1.6,CC(C)OC(=O)C(C(=O)OC(C)C)=C1SCCS1=O (stereo not given)
0.002,CC(=O)Nc1ccc2cc(S(=O)(=O)[O-])c(/N=N/c3ccc(S(=O)(=O)CCOS(=O)(=O)[O-])cc3)c(O)c2c1.[Na+].[Na+]
0.354,COC(=O)OC
4.26,Cc1ccc(Nc2ccc(O)c3c2C(=O)c2ccccc2C3=O)cc1
1.1,CC1(C)C(/C=C(\Cl)C(F)(F)F)C1C(=O)[O-].[K+] (stereo partly drawn)
3.67,CCN(CCC#N)c1ccc(N=Nc2ccc([N+](=O)[O-])cc2C#N)cc1
0.21,Nc1cc(S(=O)(=O)O)ccc1O
2.79,CCOC(=O)c1cc(NC(=O)c2cccs2)ccc1OCC(O)CNC(C)(C)C (stereo not given)
1,CC(=O)O.CCN=C1C=CC(=C(c2ccc(NCC)c(C)c2)c2ccc(NCC)c(C)c2)C=C1C
0.57,CCOc1cc2c(cc1NC(=O)c1ccccc1)Oc1c(NC(C)=O)c3c(c(NC(C)=O)c1=N2)Oc1cc(NC(=O)c2ccccc2)c(OCC)cc1N=3
-3.61,CC(=O)OCC[N+](C)(C)C.[Br-]
-1.58,CC(=O)[O-].COc1ccc(C(C[NH3+])C2(O)CCCCC2)cc1 (stereo not given)
6.7,CCCCCCCC(=O)OCC(COC(=O)CCCCCCC)OC(=O)CCCCCCC
2.36,N#Cc1ccc(Br)cc1
-0.14,CC(=O)CC(C)(C)O
-1.56,Cc1nn(-c2ccccc2)c(=O)[c-]1/N=N/c1cc([N+](=O)[O-])cc(S(=O)(=O)[O-])c1[O-].[Cr+3].[Na+].[OH-]
3.39,C=CC1CC2C=CC1C2 (stereo not given)
2.91,O=C1c2ccccc2C(=O)c2c1ccc(O)c2O
2.7,CCO[Si](CCCS)(OCC)OCC
-1,NNC(=O)CCO
-2.7,S=C(S)NCCNC(=S)S
-1.3,Nc1nc2c(ncn2[C@H]2C[C@H](O)[C@@H](CO)O2)c(=O)[nH]1
-5.003,O=S(=O)([O-])c1cccc(Nc2ccc3cc(S(=O)(=O)[O-])c(/N=N\c4ccc(ON=[N+]([O-])c5ccc(/N=N\c6c(S(=O)(=O)[O-])cc7ccc(Nc8cccc(S(=O)(=O)[O-])c8)cc7c6[O-])c([O-])c5)cc4[O-])c([O-])c3c2)c1.[Cu+2].[Cu+2].[NH4+].[NH4+].[Na+].[Na+]
-1.74,O=[N+]([O-])c1cccc2c(/N=N\c3c([O-])ccc4ccccc34)c([O-])cc(S(=O)(=O)[O-])c12.O=[N+]([O-])c1cccc2c(/N=N\c3c([O-])ccc4ccccc34)c([O-])cc(S(=O)(=O)[O-])c12.[Cr+3].[Na+].[Na+].[Na+]
0.81,C=CCNCC
2,Cc1[nH]n2c(=O)c3ccccc3nc2c1N=Nc1ccc(Cl)cc1[N+](=O)[O-]
2.82,CC[C@]1(O)C[C@H]2C[N@](CCc3c([nH]c4ccccc34)[C@@](C(=O)OC)(c3cc4c(cc3OC)N(C=O)[C@H]3[C@@](O)(C(=O)OC)[C@H](OC(C)=O)[C@]5(CC)C=CCN6CC[C@]43[C@@H]65)C2)C1
5.44,ClC1=C(Cl)[C@@]2(Cl)C(Cl)=C(Cl)[C@@H]3C[C@H]2[C@H]1[C@H]3Cl
-1.52,CC(=O)N[C@@H](C)C(N)=O
-4.7,O=C([O-])C1=NN(c2ccc(S(=O)(=O)[O-])cc2)C(=O)C1/N=N/c1ccc(NC(=O)c2ccc3nc(Cl)c(Cl)nc3c2)cc1S(=O)(=O)[O-].[Na+].[Na+].[Na+] (stereo partly drawn)
3.7,Cc1ccc(N=Nc2c(O)ccc3ccccc23)c([N+](=O)[O-])c1
3.86,C[C@@H]1C[C@H]2[C@@H]3C[C@H](F)C4=CC(=O)C=C[C@]4(C)[C@@]3(F)[C@@H](O)C[C@]2(C)[C@H]1C(=O)COC(=O)C(C)(C)C
-2.26,NC(=O)NC1NC(=O)NC1=O (stereo not given)
0.35,COC1CCC2(CC1)NC(=O)NC2=O.[HH].[Na+] (stereo not given)
-0.04,CCCC[P+](CCCC)(CCCC)CCCC.[Cl-]

A selection of 6 entries from above:

| compound | logP |
|---|---|
| O=[N+]([O-])c1cccc2c(/N=N\c3c([O-])ccc4ccccc34)c([O-])cc(S(=O)(=O)[O-])c12.O=[N+]([O-])c1cccc2c(/N=N\c3c([O-])ccc4ccccc34)c([O-])cc(S(=O)(=O)[O-])c12.[Cr+3].[Na+].[Na+].[Na+] | -1.74 |
| COC1CCC2(CC1)NC(=O)NC2=O.[HH].[Na+] (stereo not given) | 0.35 |
| Cc1nn(-c2ccccc2)c(=O)[c-]1/N=N/c1cc([N+](=O)[O-])cc(S(=O)(=O)[O-])c1[O-].[Cr+3].[Na+].[OH-] | -1.56 |
| C=CCNCC | 0.81 |
| CC(=O)N[C@@H](C)C(N)=O | -1.52 |
| NC(=O)NC1NC(=O)NC1=O (stereo not given) | -2.26 |

Values as listed in the OPERA 2.9 repository of K. Mansouri.